Measured values from PMC11594144.

How the values were obtained:
Assay in all cases: AUC
[1] = biological target: Vip3Aa64 activated toxin (trypsin-digested) F229Y (Bacillus thuringiensis)
[2] = biological target: Vip3Aa64 activated toxin (trypsin-digested) E168C (Bacillus thuringiensis)
[3] = biological target: Vip3Aa64 activated toxin (trypsin-digested) T167C (Bacillus thuringiensis)
[4] = biological target: Vip3Aa64 activated toxin (trypsin-digested) E168C:N242C (Bacillus thuringiensis)
[5] = biological target: Vip3Aa64 activated toxin (trypsin-digested) N242C (Bacillus thuringiensis)

## Vip3Aa64 activated toxin (trypsin-digested) F229Y (complex)
[1]
  stoichiometry N: 4

## Vip3Aa64 activated toxin (trypsin-digested) E168C (complex)
[2]
  stoichiometry N: 4

## Vip3Aa64 activated toxin (trypsin-digested) T167C (complex)
[3]
  stoichiometry N: 4

## Vip3Aa64 activated toxin (trypsin-digested) E168C:N242C (complex)
[4]
  stoichiometry N: 4

## Vip3Aa64 activated toxin (trypsin-digested) N242C (complex)
[5]
  stoichiometry N: 4
